The subject of the assay is MC38 cells. The assay can be described thus: IL-2 and anti-PD-1 therapy in March5+/f and March5+/f:Vav1-Cre mice bearing MC38 tumors. The format is in vivo. The settings on record: IL-2 50000 IU per mouse i.p. Here is the method: March5^+/f and March5^+/f:Vav1-Cre mice were subcutaneously injected with MC38 cells (5×10^5). On day 5 after tumor cell inoculation, mice were intraperitoneally injected with control, IL-2 (50000 IU per mouse) or anti-PD-1 (100 μg per mouse). Tumor sizes were measured every two days by caliper from day 5. WT: March5^+/f, CHZ: March5^+/f:Vav1-Cre. […] Data were analyzed using two-way ANOVA with GraphPad Prism 8.
March5^+/f and March5^+/f:Vav1-Cre mice were subcutaneously injected with MC38 cells (5×10^5). On day 5 after tumor cell inoculation, mice were intraperitoneally injected with control, IL-2 (50000 IU per mouse) or anti-PD-1 (100 μg per mouse). Mice were sacrificed when the tumor size is bigger than 15 mm of the mean tumor diameter, tumor volume exceeded 2000 mm^3, or tumor had ulcers with diameter reached 10 mm. Statistical analysis was performed using the GraphPad Prism 8 software, n=8. Kaplan-Meier survival curves and corresponding log-rank (Mantel-Cox) tests were used to evaluate the statistical differences between groups in survival studies. […]
IL-2 and anti-PD-1 therapy in March5^+/f and March5^+/f:Vav1-Cre mice: mice were intraperitoneally injected with control, IL-2 (50000 IU per mouse, dissolved in PBS) or anti-PD-1 (100 μg per mouse, dissolved in PBS) five days after inoculation of MC38 cells. Tumor size and mouse survival were measured every two days from day 5. […]

As to “IL-2: human IL-2 (SL Pharm), γc family cytokine”, the “suppression of tumor growth and overall survival, March5+/f:Vav1-Cre versus March5+/f mice” value is “increased efficacy in suppression of tumor growth and improvement of the overall survival”.
